Assay results from patent publication US11155556B2, “Pyrimido-diazepinone kinase scaffold compounds and methods for treating PI3K-mediated disorders” (DANA-FARBER CANCER INSTITUTE, INC., priority 2016, dated 2021).

Columns and labels:
Type in all cases: cell-based
MV4:11 cells = assay: CellTiter-Glo cell viability assay, MV4:11; settings: Homo sapiens, MV4-11, 72 h, 3 days, average of three replicates
Description: (§1) Cell viability assays were performed using CellTiter-Glo (Promega). Cells were grown in RPMI-10% FBS medium. 600 cells per well were seeded in a 96-well plate and then treated with eight doses of each compound in 3-fold dilution steps ranging from 10 um to 0.0046 uM for 3 days. Wells were imaged using a luminometer. IC50 were determined using Prism software. Data was normalized to a dimethyl sulfoxide (DMSO)-only control.

Jurkat cells = assay: CellTiter-Glo proliferation / cell viability assay, Jurkat; settings: Homo sapiens, 72 h, 3 days, average of three replicates
Description: (§2) Proliferation assays were conducted in Jurkat or MOLT4 cell lines using Cell Titer Glo as described in product manual.
as §1

Molm14 cells = assay: CellTiter-Glo cell viability assay, Molm14; settings: Homo sapiens, MOLM-14, 72 h, 3 days, average of three replicates
Description: as §1

MOLT4 cells = assay: CellTiter-Glo proliferation / cell viability assay, MOLT4; settings: Homo sapiens, MOLT-4, 72 h, 3 days, average of three replicates
Description: as §2, §1

IC50 (MV4:11 cells): 6.3 µM
IC50 (Jurkat cells): 7.9 µM
IC50 (Molm14 cells): 3.6 µM
IC50 (MOLT4 cells): 10.6 µM
SMILES: CC[C@H](Nc1ncnc2[nH]cnc12)c1nc2cccc(F)c2c(=O)n1-c1ccccc1 [Idelalisib, reference compound]
